Values of other authors, collected in patent US9464021B2, “Method of preparation of stereospecific quinone derivatives” (priority 2013, dated 2016).

Sequences of proteins named here, by UniProt entry; tags and fusion partners are left off.
UniProt P35372, whole entry, species assumed: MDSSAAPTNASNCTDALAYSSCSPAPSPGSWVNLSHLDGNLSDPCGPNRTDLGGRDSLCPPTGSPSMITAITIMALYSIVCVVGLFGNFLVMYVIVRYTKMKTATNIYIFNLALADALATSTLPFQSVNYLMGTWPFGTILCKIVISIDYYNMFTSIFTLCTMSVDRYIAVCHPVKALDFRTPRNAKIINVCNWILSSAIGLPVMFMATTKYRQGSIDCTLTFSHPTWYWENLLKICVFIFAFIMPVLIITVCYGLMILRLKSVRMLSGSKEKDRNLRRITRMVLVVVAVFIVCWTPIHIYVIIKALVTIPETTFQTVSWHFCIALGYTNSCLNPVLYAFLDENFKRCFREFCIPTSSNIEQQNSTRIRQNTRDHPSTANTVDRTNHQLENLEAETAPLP

Molecular target: μ opioid receptor (Homo sapiens, UniProt P35372)

In the case of R-methadone, the “affinity for the μ opioid receptor relative to S-methadone” value is given as 20 fold.
